Source: patent publication US7507547B2, “Screening assays for antioxidants and antiproliferative compounds” (University of Massachusetts, priority 2004, dated 2009)

Chains of the proteins cited; added tags and fusions are not shown.
UniProt P30989, whole entry: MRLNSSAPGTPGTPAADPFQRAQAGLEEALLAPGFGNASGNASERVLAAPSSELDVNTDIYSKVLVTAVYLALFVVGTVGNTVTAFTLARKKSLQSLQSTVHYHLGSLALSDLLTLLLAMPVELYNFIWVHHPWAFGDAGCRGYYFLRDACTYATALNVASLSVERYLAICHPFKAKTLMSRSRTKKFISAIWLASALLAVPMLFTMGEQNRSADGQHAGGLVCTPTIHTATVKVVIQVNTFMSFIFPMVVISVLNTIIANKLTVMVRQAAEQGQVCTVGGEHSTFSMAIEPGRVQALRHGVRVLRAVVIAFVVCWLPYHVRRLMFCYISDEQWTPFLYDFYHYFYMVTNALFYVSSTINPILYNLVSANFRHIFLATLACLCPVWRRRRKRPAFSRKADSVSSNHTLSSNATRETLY

Biological target: T1, NTR1 (Homo sapiens, UniProt P30989)
T1 construct: endogenous in cells; host or cells: PC3 cells (ATCC)
Test: ^125I-NT binding to PC3 cells
Settings: 10^5 cpm ^125I-ligand, 37° C.

## ^125I-NT: mono-iodinated neurotensin, agonist ligand for NTR1
  Specific Binding (% of total): > 95 % of total and ~95 % of total

Several values for one entry are separate records, joined by “and”; a condition that tells them apart may be missing. Equal values may be shown once.
